Ab-14 light chain CDR variants: yeast mating affinities

Values reported by Engelhart et al. 2022, doi:10.1038/s41597-022-01779-4 (FLAb copy).

Binding partner: SARS-CoV-2 spike HR2 peptide, sequence PDVDLGDISGINAS.

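Phage display of a naive human antibody library on the peptide gave the parent. AAYL50 was designed without a model: most single CDR substitutions and a random sample of double and triple ones. AlphaSeq pools MATa yeast showing the antibodies with MATalpha yeast showing the peptide. Binding brings cells together so that they mate, and sequencing counts the barcode pairs among the diploids. A regression on co-assayed BCL2-family reference pairs converts the normalised counts of each replicate to an apparent Kd. The assay was run in three technical replicates.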

Ab-14 is the parent antibody, in scFv form: VH, then a 15-residue (Gly4Ser)3 linker, then VL. The heavy chain is unchanged in all variants.
VH: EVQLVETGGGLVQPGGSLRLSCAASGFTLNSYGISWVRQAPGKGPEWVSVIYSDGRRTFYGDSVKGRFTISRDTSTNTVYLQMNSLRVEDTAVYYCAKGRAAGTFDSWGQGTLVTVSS
VL: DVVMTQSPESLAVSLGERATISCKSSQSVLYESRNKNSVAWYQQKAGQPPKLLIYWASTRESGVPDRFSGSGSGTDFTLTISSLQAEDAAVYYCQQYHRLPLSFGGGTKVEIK

Each variant is given by its three light chain CDRs, as the data file delimits them; those of the parent are KSSQSVLYESRNKNSVA, WASTRES, QQYHRLPLS.
All variants listed here change Q27 of the VL, counted from its first residue.
The read-out is the apparent dissociation constant on a log10 scale (nM): the lower, the stronger.
Averages over replicates are reported, and they cover detected replicates only.
An entry "no signal" has no value in the source: the pair was not observed among the diploids in any replicate. This suggests poor binding but is not conclusive.
For reference, the parent read 0.65 as the reference entry and 1.68 as a member of this library.
Three control strains display no target. For library AAYL50, 18% of the pairings with them gave a signal, with a median of 4.19 and one signal in twenty below 2.99, so weak values seen in few replicates may be background.

The variant KSSNSVLYESRNKNSVA | WASTRES | QVRHRLPLS gave 1.29 (3 of 3 replicates). The variant KSSVSKLYESRNKNSVA | WASTRES | QQYHRLPLQ gave 3.99 (3 of 3 replicates). The variant KSSVSVLYLSRNKNSVA | WASTRES | QQYHRLQLS showed 3.49 (3 of 3 replicates). With KSSLSVLDESRNKNSLA | WASTRES | QQYHRLPLS the result was 0.60 (3 of 3 replicates). With KSSDSVLYFSRNKNSVA | WASTRES | QQYHRLPLS the result was 2.35 (3 of 3 replicates). With KSSESVLYEKRNKNSVA | WASTRES | TQYHRLPLS the result was no signal (0 of 3 replicates).

The variant KSSVSVLFESRNKNSVI | WASTRES | QQYHRLPLS showed no signal (0 of 3 replicates). With KSSNSVLYESRNKNSVA | WASTRES | QQEHRLPLP the result was 4.55 (1 of 3 replicates). The variant KSSNSVLYESRNKNSVR | WASTFES | QQYHRLPLS gave no signal (0 of 3 replicates). The variant CSSLSVLYESRNKNSVA | WASTRES | QQYHRLPLF showed 2.83 (3 of 3 replicates). For KSSSSVLYESRNKNSVA | WASTRQS | QQWHRLPLS, the assay gave 5.69 (1 of 3 replicates). The variant KSSISVLCESRNKNSVA | WASTREW | QQYHRLPLS gave 2.18 (3 of 3 replicates).

With KSSKSVLYESRNKNSVA | WASTNES | QQEHRLPLS the result was no signal (0 of 3 replicates). For KYSESVLYESRNKNSVA | WASTRES | QQYHRLPLS, the assay gave -0.17 (3 of 3 replicates). The variant KWSASYLYESRNKNSVA | WASTRES | QQYHRLPLS showed 0.95 (3 of 3 replicates). The variant KSSNSVLYESRNKNSVA | WASTRES | QQYHRLPTS gave 3.21 (1 of 3 replicates). The variant KSSNSVLYESRNKNSVA | WASTRES | QQYHRLPLS showed 2.77 (1 of 3 replicates). With KSSDSVLYESRNKNSVA | WAFTGES | QQYHRLPLS the result was no signal (0 of 3 replicates).

For KSSISVYYESRNKNSVA | WASTREG | QQYHRLPLS, the assay gave 1.62 (3 of 3 replicates). With MSSASVYYESRNKNSVA | WASTRES | QQYHRLPLS the result was 1.92 (3 of 3 replicates). The variant KQSWSVLYESRNKNSVH | WASTRES | QQYHRLPLS showed 4.16 (1 of 3 replicates). The variant KKSGSVMYESRNKNSVA | WASTRES | QQYHRLPLS gave 2.03 (3 of 3 replicates). The variant KSSDSVLYESRNKNSVA | WAVTRES | QQYHRTPLS gave 4.88 (2 of 3 replicates). The variant KSSLSVLYESRNKNSVA | WASTRES | QQYHRLMLS gave 1.95 (3 of 3 replicates).

For KWSLHVLYESRNKNSVA | WASTRES | QQYHRLPLS, the assay gave 4.39 (2 of 3 replicates). With KSSFSVLYESRCKNSVA | WASTRES | QQYLRLPLS the result was 3.05 (3 of 3 replicates). The variant KSSMSVLYESRNKNSVP | WASTRES | QAYHRLPLS gave 3.65 (1 of 3 replicates). The variant KSSWSVLYESRNKNSVA | WASTRES | QQYHRLILS showed 4.49 (2 of 3 replicates). The variant PSSRSVLYESRNKNSVA | WTSTRES | QQYHRLPLS gave 4.02 (3 of 3 replicates). For KSSFSVLYESRNKNSVA | WASTRES | QQYHRLPLS, the assay gave no signal (0 of 3 replicates).

With KSSDSVLYEGTNKNSVA | WASTRES | QQYHRLPLS the result was 1.24 (3 of 3 replicates). With KSSGSVLYESRHKNWVA | WASTRES | QQYHRLPLS the result was 4.05 (1 of 3 replicates). The variant KSSASVLYESINKNSVA | WASARES | QQYHRLPLS gave 1.42 (3 of 3 replicates).

The first 5 variants above that were never detected:

CDR-L1	CDR-L2	CDR-L3	log10 Kd (nM), mean	detected
KSSESVLYEKRNKNSVA	WASTRES	TQYHRLPLS	no signal	0/3
KSSVSVLFESRNKNSVI	WASTRES	QQYHRLPLS	no signal	0/3
KSSNSVLYESRNKNSVR	WASTFES	QQYHRLPLS	no signal	0/3
KSSKSVLYESRNKNSVA	WASTNES	QQEHRLPLS	no signal	0/3
KSSDSVLYESRNKNSVA	WAFTGES	QQYHRLPLS	no signal	0/3